Test results from ChEMBL document CHEMBL1155996, “Improving potency and selectivity of a new class of non-Zn-chelating MMP-13 inhibitors” (Bioorg Med Chem Lett, 2009).

Target: Collagenase 3 (Homo sapiens, UniProt P45452)
Assay: Inhibition of human MMP13 by FRET assay

## CNC(=O)[C@@H](NC(=O)c1ccc(-c2ccc(NC(=O)c3cc4ccccc4o3)cc2)o1)C1CCCCC1
  IC50: 620 nM
